The target of this experiment is T1, Histone deacetylase HD2 (Zea mays, UniProt Q94F81).
T1 sequence (Q94F81 whole entry): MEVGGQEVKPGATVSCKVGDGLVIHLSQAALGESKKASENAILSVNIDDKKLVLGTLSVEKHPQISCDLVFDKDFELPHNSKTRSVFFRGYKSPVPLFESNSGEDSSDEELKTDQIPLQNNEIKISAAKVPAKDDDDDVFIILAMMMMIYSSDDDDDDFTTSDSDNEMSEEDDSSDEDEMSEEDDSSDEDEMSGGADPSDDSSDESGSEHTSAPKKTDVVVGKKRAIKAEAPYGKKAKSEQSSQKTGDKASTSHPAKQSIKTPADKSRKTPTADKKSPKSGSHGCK
Nature of the experiment: Inhibition of maize Histone deacetylase 2 (HD-2) activity.

Each structure is given as a SMILES string.

The term IC50 denotes the concentration that gives 50% inhibition. Low values mean inhibition by little substance, high ones a need for much substance. `CC(/C=C/C(=O)NO)=C\[C@@H](C)C(=O)c1ccc(N(C)C)cc1` [TRICHOSTATIN] displayed an IC50 of 3 nM.

The record behind these values is ChEMBL document CHEMBL1132469, “Amide analogues of trichostatin A as inhibitors of histone deacetylase and inducers of terminal cell differentiation” (J Med Chem, 1999).
